# Target: fully phosphorylated, active Mouse ERK2 protein (Mus musculus (Mouse), UniProt P63085)
# By UniProt entry, the sequences of proteins in these tests, tags left out.
# UniProt P63085, whole entry: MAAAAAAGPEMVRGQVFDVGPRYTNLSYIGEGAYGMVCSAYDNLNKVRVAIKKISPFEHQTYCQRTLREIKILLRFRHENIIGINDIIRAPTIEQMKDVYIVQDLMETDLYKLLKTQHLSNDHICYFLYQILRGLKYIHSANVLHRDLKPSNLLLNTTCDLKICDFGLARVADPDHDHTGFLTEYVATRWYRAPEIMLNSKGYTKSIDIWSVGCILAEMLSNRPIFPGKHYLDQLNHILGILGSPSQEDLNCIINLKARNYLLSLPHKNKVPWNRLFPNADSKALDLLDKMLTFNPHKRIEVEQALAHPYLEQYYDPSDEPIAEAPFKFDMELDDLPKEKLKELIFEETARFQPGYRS
# Test: Active ERK2 (aERK) IMAP assay, condition 1
# Conditions: read-out: aERK IC50; aERK assay condition 1, 30 μM ATP
smiles,measurement,value
COc1cccc(F)c1CN1C[C@@H](NC(=O)c2ccc3[nH]nc(-c4ccc5nn(C)cc5c4)c3c2)C[C@@H](C(F)(F)F)C1,IC50,810 nM
